Earlier results, collected in patent US5905089A, “Use of sesquiterpene lactones for treatment of severe inflammatory disorders” (Board of Supervisors of Louisiana State University and …, priority 1998, dated 1999).

Tested on: COX-1
Conditions: in contrast to suppression of COX-2 expression; cited from earlier work

**Q.** With `C[C@@H]1C[C@H]2O[C@@H]2/C=C\C=C\C(=O)Cc2c(Cl)c(O)cc(O)c2C(=O)O1` [radicicol] as the compound, how does the “effect on COX-1” value read?
**A.** without affecting COX-1
